The results in this text go back to US20230414509A1, “HYDROPHOBIC DRUGS IN ORGANIC CORE HIGH DENSITY LIPOPROTEIN (HDL) NANOPARTICLES” (NORTHWESTERN UNIVERSITY, priority 2020, published 2023).

In general, Ki refers to a measure of affinity in units of concentration, obtained from inhibition or displacement.

The assay deals with T1, p38γ kinase (Homo sapiens, UniProt P53778).
T1 sequence (P53778 1-367): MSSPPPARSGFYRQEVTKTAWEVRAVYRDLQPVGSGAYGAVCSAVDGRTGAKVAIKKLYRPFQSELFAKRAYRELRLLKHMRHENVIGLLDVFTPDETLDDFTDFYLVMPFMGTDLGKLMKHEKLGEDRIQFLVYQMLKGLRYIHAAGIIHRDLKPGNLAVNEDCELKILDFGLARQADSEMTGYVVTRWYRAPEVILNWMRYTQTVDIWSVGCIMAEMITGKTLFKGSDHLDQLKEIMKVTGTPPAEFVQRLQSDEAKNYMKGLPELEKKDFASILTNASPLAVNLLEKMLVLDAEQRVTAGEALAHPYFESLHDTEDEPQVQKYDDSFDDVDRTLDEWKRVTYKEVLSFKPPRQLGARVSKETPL
Put plainly: In vitro enzyme kinetics of inhibition of p38γ kinase (time-resolved fluorescence energy transfer). Type of assay: biochemical. The settings on record: competitive inhibition model, ATP-dependent; read-out: Ki specific to p38γ. An excerpt:
FIG. 2A: An ADP-Glo in vitro kinase assay was used to calculate IC50 for PIK75 inhibition of kinas activity of the four p38 isoforms, normalized to DMSO control. Calculated IC50, values (micromole/Liter) are indicated. FIG. 2B: Time-resolved fluorescence energy transfer was used to measure in vitro enzyme kinetics of inhibition of p38γ kinase at indicated concentrations of PIK75. Counts per minute (CPM) corresponds to product formation level. The error bar of the measurements represents standard deviation of triplicate data. Solid lines represent data fitting to the competitive inhibition model. Calculated Ki and Km are indicated. FIG. 2C: Mapping of the CSPs induced by PIK75 binding to p38γ on the docked structure of p38γ in complex with PIK75. […] The residues with the largest line-broadening effects are indicated in red, and those with significant CSPs (>0.05 ppm) are indicated in green with their sidechains shown in stick form. L58 and L170 are within a 3-angstrom distance of PIK75. ANP, an analogue of ATP molecule with extra nitrogen bonds (a non-hydrolyzable ATP analogue); ATP, adenosine triphosphate; SCP, chemical shift perturbation; Ctrl, control; IC50, half maximal inhibitory concentration; Ki enzyme constants for inhibitors; Km, enzyme constants for substrates; M, mol/L; SS, Sezary syndrome. Cutaneous T cell lymphoma (CTCL) is a disfiguring and aggressive cancer. […]

Turning to `Cc1ccc([N+](=O)[O-])cc1S(=O)(=O)N(C)/N=C/c1cnc2ccc(Br)cn12.Cl` [F7, PIK75], the Ki was 12 nM.
